# Data: PubChem BioAssay AID588856 (National Center for Advancing Translational Sciences (NCATS), 2011)
# This is a selection; strong and weak results do not stand in their true shares. The source made the active and inactive calls. Calls come from the whole dose curve; as a rule, active = well fitted cell-killing curve with a large enough effect; inactive = no such curve, though single readings can be large or run the other way.
# Assay: qHTS for Inhibitors of TGF-b: Cytotox Counterscreen
# Conditions: HepG2 CAGA-GFP viability, ATP luminescence, 18 h; series mostly up to 46.1 µM; activity change, negative = cytotoxicity: at the top concentration
# In short: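 CellTiter-Glo luminescence gave cytotoxicity after 18 hours at 37 degrees C. The cells were HepG2 CAGA-GFP in 1% FBS DMEM, stimulated with 500 pg/mL TGF-beta after compound addition. %Activity was normalised to no-cell wells (complete cell-killing) and DMSO (no toxicity), and curves were fitted and classified.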
row,Compound,"activity change, negative = cytotoxicity"
1,Cc1nn(-c2ccccc2)c2c1P(=O)(N1CCOCC1)N(C)C(c1ccccc1)=N2 (configuration not stated),inactive: 1.25%
2,Nc1cccc([As](=O)(O)c2ccccc2)c1,inactive: 10.2%
3,NS(=O)(=O)c1cccc(NC(=O)COC(=O)C(O)(c2ccccc2)c2ccccc2)c1,inactive: 0.968%
4,O=P1(Nc2ccc(Br)cn2)COc2ccccc2OC1,inactive: -14.4%
5,Cc1ccc(OCC(=O)OC2CN3CCC2CC3)cc1 (configuration not stated),inactive: -1.72%
6,O=[As](O)(c1cccs1)c1cccs1,inactive: 1.83%
7,Cc1ccc(S(=O)(=O)N(CCCN)CCCc2c(C)nc(N)[nH]c2=O)cc1,inactive: -27%
8,O=P1(Nc2ncccn2)COc2ccccc2OC1,inactive: 3.69%
9,CC(C)(C)C(=O)NC(Sc1ncccn1)C(Cl)(Cl)Cl (configuration not stated),inactive: -31.3%
10,Clc1n[nH]nc1-c1nn[nH][15n]1,inactive: -1.95%
11,O=P1(N(CCCl)CCCl)NCCC(C(F)(F)F)O1 (configuration not stated),inactive: -13.6%
12,CCOP(=O)(NC(=NC(C)c1ccccc1)NC(C)c1ccccc1)OCC (configuration not stated),inactive: -7.77%
13,CCC1=CC2Cc3nc4ccc(Cl)cc4c(N)c3C(C1)C2 (configuration not stated),inactive: -106%
14,O=P1(Nc2ccccn2)COc2ccccc2OC1,inactive: -8.53%
15,CN(CCCl)Cc1cc(Cl)c(NC2=NCCN2)c(Cl)c1,inactive: -10.8%
16,CCOP(=O)(Nc1ccc(C)cn1)OCC,inactive: 6.22%
17,CN(C(=O)Cc1ccc(Cl)c(Cl)c1)[C@@H]1CCCC[C@H]1N1CCCC1,inactive: -20.5%
18,CC(C)/C=N\N=C(\N)N[N+](=O)[O-],inactive: -14.8%
19,CC1(CBr)Cn2c(nc3ccccc3c2=O)S1 (configuration not stated),inactive: 2.63%
20,COc1ccccc1CNC(=O)COC(=O)C(O)(c1ccccc1)c1ccccc1,inactive: 11.7%
21,c1nnnn1CCn1cnnn1,inactive: 2.26%
22,O=P(Nc1nccs1)(c1ccccc1)c1ccccc1,inactive: 17.9%
23,CC(C)C(=O)NC(Sc1ccccc1)C(Cl)(Cl)Cl (configuration not stated),inactive: 3.21%
24,COc1cccc([N+](=O)[O-])c1[N+](=O)[O-],inactive: -91.8%

row,Compound,"activity change, negative = cytotoxicity"
1,C[C@H]1OP(=O)(Oc2ccccc2)[C@H](O)[C@H](O)[C@H]1N=[N+]=[N-] (some centres not stated),inactive: -15%
2,O=P(Nc1nc2ccccc2s1)(c1ccccc1)c1ccccc1,inactive: -10.5%
3,CN(C)C1(CNC(=O)c2ccc(Cl)c(S(N)(=O)=O)c2)CCCCC1,inactive: -2.36%
4,O=P(Nc1ccccn1)(c1ccc(Br)cc1)c1ccc(Br)cc1,inactive: -46.4%
5,Nc1ccc(CCCCOc2ccccc2)cc1,inactive: -10.4%
6,COc1ccc(N)c([N+](=O)[O-])c1[N+](=O)[O-],inactive: -13.6%
7,O=C(OC1CN2CCC1CC2)c1cccc(Cl)c1 (configuration not stated),inactive: 3.11%
8,Nc1ccc([As](=O)(O)c2ccc([N+](=O)[O-])cc2)cc1,inactive: -31.8%
9,C(Cc1nn[nH]n1)Cc1nn[nH]n1,inactive: 4.85%
10,O=[As](O)(c1ccccc1)c1ccc(O)cc1,inactive: 19%
11,CC(=O)NC(SC(=S)N(C)C)C(Cl)(Cl)Cl (configuration not stated),inactive: -36.3%
12,O=[N+]([O-])c1ncn(CCn2cnc([N+](=O)[O-])n2)n1,inactive: -0.0348%
13,O=[N+]([O-])c1ccc(O)c(/C=N/Nc2ccc([N+](=O)[O-])cc2[N+](=O)[O-])c1,inactive: -36.1%
14,C=C(COC(=O)CCC(=O)O)CC1CC(O)[C@]2(C)OC3CC4OC5C[C@]6(C)O[C@]7(C)CCC8OC9C[C@]%10(C)OC%11C(C)=CC(=O)OC%11CC%10OC9C[C@@H](C)C8OC7CC6O[C@]5(C)C/C=C\C4OC3CC2O1 (some centres not stated),inactive: -56.9%
15,O=P1(N(CCCl)CCCl)OCCC2CCCCN21 (configuration not stated),inactive: -3.88%
16,Cc1ccc(NP(=O)(Oc2cccc(C)c2)Oc2cccc(C)c2)nc1,inactive: -88.3%
17,O=[N+]([O-])c1cc([N+](=O)[O-])c2nc[nH]c2c1,inactive: -8.63%
18,c1ccc(-c2nn[nH]n2)c(-c2nn[nH]n2)c1,inactive: 28.3%
19,O=C(NC1CCS(=O)(=O)C1)NP(=S)(Oc1ccccc1)Oc1ccccc1 (configuration not stated),inactive: -20.2%
20,CCNC(=S)/N=C(\N)N[N+](=O)[O-],inactive: -1.92%
21,CN(C)C(=O)Oc1noc2ccccc12,inactive: 9.98%
22,O=c1c2cc([N+](=O)[O-])ccc2[nH]c2c([N+](=O)[O-])cc([N+](=O)[O-])cc12,inactive: -8.21%
23,Cc1ccccc1OP(=O)(Nc1ccccn1)Oc1ccccc1C,inactive: 8.76%
24,CC(NC(=O)COC(=O)C(O)(c1ccccc1)c1ccccc1)c1ccccc1 (configuration not stated),inactive: -23.8%

row,Compound,"activity change, negative = cytotoxicity"
1,CCC(=O)N1C2C3N(C(=O)CC)C1C1N(C(=O)CC)C(C(N1C(=O)CC)N3C(=O)CC)N2C(=O)CC,inactive: -0.367%
2,O=C(OC1CN2CCC1CC2)c1ccccc1 (configuration not stated),inactive: -18.7%
3,CC(=O)NC(SC(=S)N(CC(C)C)CC(C)C)C(Cl)(Cl)Cl (configuration not stated),inactive: -0.353%
4,Cc1ccc(OP(=O)(Nc2ccccn2)Oc2ccc(C)cc2)cc1,inactive: -17.5%
5,COC(=O)c1cc2c(s1)N=C(c1ccccc1)N(C)P2(=O)N1CCOCC1 (configuration not stated),inactive: -34.6%
6,O=C(C[N+]12CCC(CC1)C(OC(=O)c1ccccc1)C2)c1ccc([N+](=O)[O-])cc1 (configuration not stated),inactive: 94.6%
7,CC(C)(C)C(=O)NC(Sc1ccccc1)C(Cl)(Cl)Cl (configuration not stated),inactive: 10.7%
8,CCc1cc(O)c([N+](=O)[O-])c(C)c1[N+](=O)[O-],inactive: 1.63%
9,CCOc1ccc(C2=NCC(CBr)S2)cc1 (configuration not stated),inactive: 24.8%
10,O=P1(Nc2nc3ccc(Cl)cc3s2)COc2ccccc2O1 (configuration not stated),inactive: -12.3%
11,CC1=CC2OC3CC4OC(=O)C=CC=CC(=O)OCCC(C)C(O)C(=O)OCC2(CC1)C4(C)C31CO1 (configuration not stated),inactive: -30.1%
12,CC(=O)Nc1ccc(Oc2c([N+](=O)[O-])cc([N+](=O)[O-])cc2[N+](=O)[O-])cc1,inactive: 4.82%
13,CC(=O)Nc1ccc([As](=O)(O)O)c(O)c1,inactive: -4.9%
14,C[C@@H]1C=CCP(=O)(Oc2ccccc2)O1 (some centres not stated),inactive: 0.326%
15,C[C@H]1OP(=O)(Oc2ccccc2)C[C@@H]2O[C@@H]21 (some centres not stated),inactive: 8.77%
16,Cc1ccccc1CN(C)C(=O)COC(=O)C(O)(c1ccccc1)c1ccccc1,inactive: -17.7%
17,COC(=O)C1(C)COP(=O)(NCc2ccccc2)OC1 (configuration not stated),inactive: -9.29%
18,N#C/C(=C\c1ccc(N(CCBr)CCBr)cc1)C(N)=O,inactive: -8.89%
19,CC(=O)c1ccc(N2CC2c2ccncc2)cc1 (configuration not stated),inactive: -4.2%
20,Clc1ccc(Cl)c(NC2=NCC(CBr)S2)c1 (configuration not stated),inactive: -2.43%
21,CN1CCCC(OC(=O)C(c2ccccc2)c2ccccc2)C1 (configuration not stated),inactive: -17.8%
22,Cc1ccc(OP(=O)(Nc2nccs2)Oc2ccc(C)cc2)cc1,inactive: 2.57%
23,COc1ccccc1OP(=O)(Nc1ccc(C)cn1)Oc1ccccc1OC,inactive: 9.06%
24,Cc1ccc(N/C(=N/P(=O)(N2CCOCC2)N2CCOCC2)N2CCOCC2)cc1,inactive: -0.105%

row,Compound,"activity change, negative = cytotoxicity"
1,CN(C(=O)Cc1ccc(Cl)c(Cl)c1)[C@H]1CCCC[C@H]1N1CCCC1,inactive: -10.1%
2,O=[N+]([O-])c1cc2c(cc1[N+](=O)[O-])OCO2,inactive: 8.6%
3,NC(=O)c1cc([N+](=O)[O-])cc([N+](=O)[O-])c1N,inactive: 16.3%
4,O=[N+]([O-])C1C(O)C(O)C([N+](=O)[O-])C(O)C1O (configuration not stated),inactive: -16.3%
5,COc1ccc(O)c2c(=O)c3c(OC)cc4c(c3oc12)C1C=COC1O4 (configuration not stated),inactive: 0.603%
6,O=C(NC(Sc1ccncn1)C(Cl)(Cl)Cl)c1ccccc1 (configuration not stated),inactive: 17.8%
7,Oc1ccccc1CNc1ccccn1,inactive: -4.02%
8,CC(C)CC(=O)NC(Sc1ccc(Cl)cc1)C(Cl)(Cl)Cl (configuration not stated),inactive: -32.8%
9,Nc1cc(N)c2nonc2c1[N+](=O)[O-],inactive: -1.58%
10,C=C(C=O)C[C@@H]1C[C@H](O)C2OC3C[C@]4(C)OC5/C=C\CC6OC7C(CC=CCC6OC5CCCC4OC3CC2O1)OC1CC2OC3CC(=O)OC3C[C@@H](C)C[C@@]2(C)OC1C[C@@H]7C (some centres not stated),inactive: -50.7%
11,CN(C(=O)Cc1ccc(Cl)c(Cl)c1)[C@H]1CCCC[C@@H]1N1CCCC1,inactive: -41.8%
12,Cc1ccc(NP(=O)(Oc2ccccc2F)Oc2ccccc2F)nc1,inactive: 39.4%
13,CCOP(=O)(Nc1ccccc1)OCC,inactive: 10%
14,Cc1cc(SC(NC(=O)c2ccc(F)cc2)C(Cl)(Cl)Cl)ncn1 (configuration not stated),inactive: 2.45%
15,CN(C)P(=O)(N(C)C)n1c(Nc2ccccc2)nnc1-c1ccccc1,inactive: -24.1%
16,O=P(Nc1nc2ccc(Cl)cc2s1)(c1ccccc1)c1ccccc1,inactive: -7.55%
17,CCCC1OP(N)(=O)OCC1CC (configuration not stated),inactive: 2.42%
18,O=C(O)c1ccccc1[As](=O)(O)O,inactive: -6.19%
19,CC(=O)Nc1ccc([As](=O)(O)O)cc1,inactive: 5.54%
20,Nc1cccc2ccc([As](=O)(O)O)cc12,inactive: 15.8%
21,CCN(N=Nc1nonc1N)c1nonc1N,inactive: 17.6%
22,Nc1c(O)cc([N+](=O)[O-])cc1[N+](=O)[O-],inactive: 38.2%
23,O=C(Nc1cc([As](=O)(O)O)ccc1O)c1ccccc1,inactive: 5.08%
24,O=P(/N=c1/nc(-c2ccccc2)n(-c2ccccc2)s1)(Nc1ccccc1)Nc1ccccc1,inactive: -21.8%

row,Compound,"activity change, negative = cytotoxicity"
1,O=P1(N(CCCl)CCCl)OCCCS1 (configuration not stated),inactive: 2.05%
2,Cc1cc(C=O)ccc1N(CCCl)CCCl,inactive: 2.84%
3,O=C(O)CNc1ccc([As](=O)(O)O)cc1,inactive: -0.83%
4,O=[N+]([O-])c1cccc(NC2=NCC(CBr)S2)c1 (configuration not stated),inactive: 7.09%
5,COC(=O)C1(C)COP(=O)(Nc2ccccc2)OC1 (configuration not stated),inactive: 3.75%
6,O=[N+]([O-])c1ncn(CCn2ncnc2[N+](=O)[O-])n1,inactive: 12.1%
7,CC(C)(C)C(=O)NC(Sc1ccncn1)C(Cl)(Cl)Cl (configuration not stated),inactive: -24.6%
8,O=[N+]([O-])c1cc([N+](=O)[O-])c(CCNc2ccccc2)c([N+](=O)[O-])c1,inactive: -2.63%
9,CCc1nc2c(n1)c1c(non1O)c1c2no[n+]1[O-],inactive: -43.6%
10,Cc1ccc(NP(=O)(Oc2ccccc2)Oc2ccccc2)nc1,inactive: -8.29%
11,CC(=O)N1C2C3N(C(C)=O)C1C1N(C(C)=O)C(C(N1C(C)=O)N3C(C)=O)N2C(C)=O,inactive: 8.47%
12,O=[N+]([O-])c1cccc2n[nH]nc12,inactive: 16.6%
13,COc1ccc(C2=NCC(CBr)S2)cc1 (configuration not stated),inactive: -15.4%
14,c1cc(-c2nn[nH]n2)ccc1-c1nn[nH]n1,inactive: -0.683%
15,CC1CCN(C(=O)Oc2c(Cl)cc(Cl)c3cccnc23)CC1,inactive: -3.91%
16,CN(C)C(=O)OCCc1n(C)cc[n+]1C,inactive: -2.62%
17,CC(C)=N/N=C(\N)N[N+](=O)[O-],inactive: 13.3%
18,COc1cc([N+](=O)[O-])c([N+](=O)[O-])cc1OC,inactive: -2.39%
19,CC(C)c1nc(Nc2ccccc2)n(P(=O)(N(C)C)N(C)C)n1,inactive: -21.9%
20,CCN(/C(=N/P(=O)(N1CCOCC1)N1CCOCC1)N1CCOCC1)c1ccc(OC)cc1,inactive: 8.56%
21,Nc1ccc([As](=O)(O)c2ccc(N)cc2)cc1,inactive: 7.79%
